Measurements taken from patent US11691963B2, “6-heteroaryloxy benzimidazoles and azabenzimidazoles as JAK2 inhibitors” (Ajax Therapeutics, Inc., priority 2020, dated 2023).
pKd: −log10 of the molar value.

Chains of the proteins cited; added tags and fusions are not shown. Residues count along the entry.
UniProt O60674, 849-1124 Y1007F/Y1008F: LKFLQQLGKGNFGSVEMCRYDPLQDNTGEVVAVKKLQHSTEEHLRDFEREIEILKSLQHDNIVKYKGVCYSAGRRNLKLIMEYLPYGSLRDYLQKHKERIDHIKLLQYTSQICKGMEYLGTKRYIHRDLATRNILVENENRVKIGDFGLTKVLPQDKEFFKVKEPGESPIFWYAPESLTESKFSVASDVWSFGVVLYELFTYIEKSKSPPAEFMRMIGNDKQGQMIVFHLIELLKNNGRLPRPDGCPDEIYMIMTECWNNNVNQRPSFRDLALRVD

Target: JAK2 (JH1domain-catalytic, Y1007F,Y1008F) kinase (Homo sapiens (Human), UniProt O60674, Y1007F/Y1008F)
Details: read-out: JAK2 Kd

Row | SMILES | pKd
1 | CC(=O)Nc1cc(Oc2cnc3nc(Nc4cc(C(C)(C)C)n(C5CCN(CC(F)F)CC5)n4)n(C)c3c2)ccn1 [Example I-114, N-(4-((2-((5-(tert-butyl)-1-(1-(2,2-difluoroethyl)piperidin-4-yl)-1H-pyrazol-3-yl)amino)-1-methyl-1H-imidazo[4,5-b]pyridin-6-yl)oxy)pyridin-2-yl)acetamide] | > 8.00
2 | CC(=O)Nc1cc(Oc2cnc3nc(Nc4cc(C(F)(F)C(F)(F)F)n([C@@H]5CCOC5)n4)n(C)c3c2C)ccn1 [Example I-126, (R)—N-(4-((1,7-dimethyl-2-((5-(perfluoroethyl)-1-(tetrahydrofuran-3-yl)-1H-pyrazol-3-yl)amino)-1H-imidazo[4,5-b]pyridin-6-yl)oxy)pyridin-2-yl)acetamide] | > 8.00
3 | CC(=O)Nc1cc(Oc2cnc3nc(Nc4cc(C(C)(C)C)n(CC#N)n4)n(C)c3c2C)ccn1 [Example I-131, N-(4-((2-((5-(tert-butyl)-1-(cyanomethyl)-1H-pyrazol-3-yl)amino)-1,7-dimethyl-1H-imidazo[4,5-b]pyridin-6-yl)oxy)pyridin-2-yl)acetamide] | > 8.00

Same assay, conditions: read-out: JAK2 Kd; JAK2 JH1 domain-catalytic, Y1007F,Y1008F; qPCR readout

Row | pKd | SMILES
4 | > 8.00 | CC(=O)Nc1cc(Oc2cnc3nc(Nc4cc(C(C)(C)C)n([C@@H]5CCOC5)n4)n(C)c3c2C)ccn1 [Example I-108, (R)—N-(4-((2-((5-(tert-butyl)-1-(tetrahydrofuran-3-yl)-1H-pyrazol-3-yl)amino)-1,7-dimethyl-1H-imidazo[4,5-b]pyridin-6-yl)oxy)pyridin-2-yl)acetamide]
5 | > 8.00 | CC(=O)Nc1cc(Oc2cnc3nc(Nc4cc(C(C)(C)C)n([C@H]5CCOC5)n4)n(C)c3c2C)ccn1 [Example I-111, (S)—N-(4-((2-((5-(tert-butyl)-1-(tetrahydrofuran-3-yl)-1H-pyrazol-3-yl)amino)-1,7-dimethyl-1H-imidazo[4,5-b]pyridin-6-yl)oxy)pyridin-2-yl)acetamide]
6 | > 8.00 | COCCC(=O)Nc1cc(Oc2cnc3nc(Nc4cc(C(C)(C)C)n([C@H]5CCOC5)n4)n(C)c3c2)ccn1 [Example I-119, (S)—N-(4-((2-((5-(tert-butyl)-1-(tetrahydrofuran-3-yl)-1H-pyrazol-3-yl)amino)-1-methyl-1H-imidazo[4,5-b]pyridin-6-yl)oxy)pyridin-2-yl)-3-methoxypropanamide]
7 | > 8.00 | CC(=O)Nc1cc(Oc2cnc3nc(Nc4cc(C(C)(C)C)n(C[C@@H]5CCN(CCF)C5)n4)n(C)c3c2C)ccn1 [Example I-124, (R)—N-(4-((2-((5-(tert-butyl)-1-((1-(2-fluoroethyl)pyrrolidin-3-yl)methyl)-1H-pyrazol-3-yl)amino)-1,7-dimethyl-1H-imidazo[4,5-b]pyridin-6-yl)oxy)pyridin-2-yl)acetamide]
8 | > 8.00 | CC(=O)Nc1cc(Oc2cnc3nc(Nc4cc(C(C)(C)C)n(C[C@H]5CCN(CCF)C5)n4)n(C)c3c2C)ccn1 [Example I-125, (S)—N-(4-((2-((5-(tert-butyl)-1-((1-(2-fluoroethyl)pyrrolidin-3-yl)methyl)-1H-pyrazol-3-yl)amino)-1,7-dimethyl-1H-imidazo[4,5-b]pyridin-6-yl)oxy)pyridin-2-yl)acetamide]
9 | > 8.00 | Cn1c(Nc2cc(C(F)(F)C(F)(F)F)n([C@@H]3CCOC3)n2)nc2ncc(Oc3ccnc(NC(=O)C4CC4)c3)cc21 [Example I-133, (R)—N-(4-((1-methyl-2-((5-(perfluoroethyl)-1-(tetrahydrofuran-3-yl)-1H-pyrazol-3-yl)amino)-1H-imidazo[4,5-b]pyridin-6-yl)oxy)pyridin-2-yl)cyclopropanecarboxamide]

Row | SMILES | pKd
10 | CC(=O)Nc1cc(Oc2cnc3nc(Nc4cc(C(F)(F)C(F)(F)F)n([C@H]5CCOC5)n4)n(C)c3c2C)ccn1 [Example I-127, (S)—N-(4-((1,7-dimethyl-2-((5-(perfluoroethyl)-1-(tetrahydrofuran-3-yl)-1H-pyrazol-3-yl)amino)-1H-imidazo[4,5-b]pyridin-6-yl)oxy)pyridin-2-yl)acetamide] | > 8.00
